Read-outs that look alike come from different tables or passages of the source.
Key:
Experiment in all cases: single-molecule fluorescence burst analysis
[1] = target: Wild-type Aβ (1–42) peptide
[2] = target: Wild-type Aβ (1–40) peptide
[3] = target: Wild-type Aβ (1–40) peptide; remark: listed apart in the source

## Atto488-Aβ42 (peptide; Atto 488 bound to the N-terminus; other documents disagree on this pair)
[1]
  mean of the oligomer size distribution, μ1 (relative photon number N phot,rel): 4.49 N¯phot,mon

## HL647-Aβ40 (peptide; HiLyte 647 bound to the N-terminus; other documents disagree on this pair)
[2]
  mean of the oligomer size distribution, μ1 (relative photon number N phot,rel): 10.6 N¯phot,mon

## Atto488-Aβ40 (peptide; Atto 488 bound to the N-terminus; other documents disagree on this pair)
[2]
  mean of the oligomer size distribution, μ1 (relative photon number N phot,rel): 2.7 N¯phot,mon
[3]
  mean of the oligomer size distribution, μ1 (relative photon number N phot,rel): 2.88 N¯phot,mon

## HL488-Aβ40 (peptide; HiLyte 488 bound to the N-terminus; other documents disagree on this pair)
[2]
  mean of the oligomer size distribution, μ1 (relative photon number N phot,rel): 4.1 N¯phot,mon

From article PMC6350010
